Assay results from ChEMBL document CHEMBL4041480, “Natural and synthetic bioactive inhibitors of glycogen synthase kinase” (Eur J Med Chem, 2017).

The chains behind the UniProt entries cited, without tags or fusion partners. Where a name states a change or a piece, a line headed by the entry shows the natural chain unless it says otherwise.
UniProt P49841: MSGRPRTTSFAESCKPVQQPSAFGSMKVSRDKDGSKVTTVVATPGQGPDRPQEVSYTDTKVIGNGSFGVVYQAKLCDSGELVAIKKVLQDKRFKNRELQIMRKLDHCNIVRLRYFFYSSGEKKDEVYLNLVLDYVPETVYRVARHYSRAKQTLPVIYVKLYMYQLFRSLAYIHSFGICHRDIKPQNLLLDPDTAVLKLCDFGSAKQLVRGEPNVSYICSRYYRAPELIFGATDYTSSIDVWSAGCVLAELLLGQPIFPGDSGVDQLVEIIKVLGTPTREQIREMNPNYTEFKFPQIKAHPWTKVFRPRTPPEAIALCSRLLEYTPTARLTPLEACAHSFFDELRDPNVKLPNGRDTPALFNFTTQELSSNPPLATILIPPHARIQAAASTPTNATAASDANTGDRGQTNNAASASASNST

Target: Glycogen synthase kinase-3 beta (Homo sapiens, UniProt P49841)

SMILES: C/C(=C\C=C\[C@@H](C)CC/C=C(\C)CC1OC(=O)C(=O)C1=O)CCCc1ccoc1 (stereo partly specified)
- IC50: 7.5 µM
